Measurements as given in ChEMBL document CHEMBL5500414 (J Med Chem, 2024).
The source made the active and inactive calls. No cut-off for these calls is given here.

Protein sequences, listed by entry. Tags and fused reporters are not part of them.
UniProt Q07820, whole entry, looked up: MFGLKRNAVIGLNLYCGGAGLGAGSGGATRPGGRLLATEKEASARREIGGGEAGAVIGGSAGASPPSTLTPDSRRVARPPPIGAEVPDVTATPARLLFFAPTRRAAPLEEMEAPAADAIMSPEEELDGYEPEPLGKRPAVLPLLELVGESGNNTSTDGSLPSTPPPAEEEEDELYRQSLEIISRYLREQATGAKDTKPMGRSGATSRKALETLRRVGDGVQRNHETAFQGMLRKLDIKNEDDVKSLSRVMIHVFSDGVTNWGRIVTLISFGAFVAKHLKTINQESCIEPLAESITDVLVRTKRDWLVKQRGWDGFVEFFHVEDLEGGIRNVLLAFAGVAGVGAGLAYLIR
UniProt O43521, whole entry, looked up: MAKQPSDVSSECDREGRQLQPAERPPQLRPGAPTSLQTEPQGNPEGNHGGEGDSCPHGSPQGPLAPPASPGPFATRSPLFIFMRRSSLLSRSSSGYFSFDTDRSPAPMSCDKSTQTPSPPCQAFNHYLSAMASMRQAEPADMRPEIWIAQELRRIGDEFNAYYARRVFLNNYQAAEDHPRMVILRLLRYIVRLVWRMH

Tests used:
[1] = target: Induced myeloid leukemia cell differentiation protein Mcl-1/Bcl-2-like protein 11 (Homo sapiens) (UniProt Q07820+O43521); assay: Inhibition of MCL-1/BIM interaction in human Pfeiffer cells assessed as decrease in BIM-associated BFL-1 level at 20 uM measured after 5 hrs by Co-IP assay; assay type: cell-based
Pfeiffer [2] = assay: Induction of apoptosis in human Pfeiffer cells assessed as increase in cytochrome c release in mitochondria measured after 5 hrs by Western blot analysis; assay type: functional, cell-based; details: dose 10-20 µM
Pfeiffer [3] = assay: Induction of apoptosis in human Pfeiffer cells assessed as increase in cleaved PARP level measured after 5 hrs by Western blot analysis; assay type: functional, cell-based; details: dose 10-20 µM
MV4-11 = assay: Antiproliferative activity against BFL-1 overexpressing isogenic human MV4-11 cells assessed as inhibitory rate in presence of doxycycline; assay type: functional, cell-based
[4] = target: T1, Bcl-2-related protein A1 (Homo sapiens) (UniProt Q16548); assay: Inhibition of BFL-1 in BFL-1 overexpressing isogenic human MOLM-13 cells assessed as late apoptotic cells at 15 uM measured after 24 hrs in presence of doxycycline by flow cytometry based Annexin V-PE/7-ADD Apoptosis detection kit; assay type: cell-based; design: scale not given: the % may be the effect or the level left
T1 sequence (whole entry): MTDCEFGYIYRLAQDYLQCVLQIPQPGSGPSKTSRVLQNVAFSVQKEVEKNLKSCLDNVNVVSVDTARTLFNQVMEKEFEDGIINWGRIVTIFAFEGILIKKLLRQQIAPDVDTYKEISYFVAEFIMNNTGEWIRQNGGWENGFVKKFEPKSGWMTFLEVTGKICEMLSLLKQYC

[5] = target: T1, Bcl-2-related protein A1 (Homo sapiens); assay: Inhibition of BFL-1 in BFL-1 overexpressing isogenic human MOLM-13 cells assessed as early apoptotic cells at 15 uM measured after 24 hrs in presence of doxycycline by flow cytometry based Annexin V-PE/7-ADD Apoptosis detection kit; assay type: cell-based; design: scale not given: the % may be the effect or the level left
[6] = target: T1, Bcl-2-related protein A1 (Homo sapiens); assay: Inhibition of BFL-1 in BFL-1 overexpressing isogenic human MOLM-13 cells assessed as early apoptotic cells at 20 uM measured after 24 hrs in presence of doxycycline by flow cytometry based Annexin V-PE/7-ADD Apoptosis detection kit; assay type: cell-based; design: scale not given: the % may be the effect or the level left
[7] = target: T1, Bcl-2-related protein A1 (Homo sapiens); assay: Inhibition of BFL-1 in BFL-1 overexpressing isogenic human MOLM-13 cells assessed as enhancement of 1 uM venetoclax-induced late apoptotic cells at 10 uM measured after 24 hrs in presence of doxycycline by flow cytometry based Annexin V-PE/7-ADD Apoptosis detection kit; assay type: cell-based; design: scale not given: the % may be the effect or the level left
[8] = target: T1, Bcl-2-related protein A1 (Homo sapiens); assay: Inhibition of BFL-1 in BFL-1 overexpressing isogenic human MOLM-13 cells assessed as enhancement of 3 uM venetoclax-induced late apoptotic cells at 20 uM measured after 24 hrs in presence of doxycycline by flow cytometry based Annexin V-PE/7-ADD Apoptosis detection kit; assay type: cell-based; design: scale not given: the % may be the effect or the level left
[9] = target: T1, Bcl-2-related protein A1 (Homo sapiens); assay: Inhibition of BFL-1 in BFL-1 overexpressing isogenic human MOLM-13 cells assessed as enhancement of 1 uM venetoclax-induced early apoptotic cells at 10 uM measured after 24 hrs in presence of doxycycline by flow cytometry based Annexin V-PE/7-ADD Apoptosis detection kit; assay type: cell-based; design: scale not given: the % may be the effect or the level left
[10] = target: T1, Bcl-2-related protein A1 (Homo sapiens); assay: Inhibition of BFL-1 in BFL-1 overexpressing isogenic human MOLM-13 cells assessed as enhancement of 1 uM venetoclax-induced early apoptotic cells at 15 uM measured after 24 hrs in presence of doxycycline by flow cytometry based Annexin V-PE/7-ADD Apoptosis detection kit; assay type: cell-based; design: scale not given: the % may be the effect or the level left
[11] = target: T1, Bcl-2-related protein A1 (Homo sapiens); assay: Inhibition of BFL-1 in BFL-1 overexpressing isogenic human MOLM-13 cells assessed as enhancement of 3 uM venetoclax-induced early apoptotic cells at 10 uM measured after 24 hrs in presence of doxycycline by flow cytometry based Annexin V-PE/7-ADD Apoptosis detection kit; assay type: cell-based; design: scale not given: the % may be the effect or the level left
[12] = target: T1, Bcl-2-related protein A1 (Homo sapiens); assay: Inhibition of BFL-1 in BFL-1 overexpressing isogenic human MOLM-13 cells assessed as enhancement of 3 uM venetoclax-induced early apoptotic cells at 20 uM measured after 24 hrs in presence of doxycycline by flow cytometry based Annexin V-PE/7-ADD Apoptosis detection kit; assay type: cell-based; design: scale not given: the % may be the effect or the level left
[13] = target: T1, Bcl-2-related protein A1 (Homo sapiens); assay: Inhibition of BFL-1 in BFL-1 overexpressing isogenic human MV4-11 cells assessed as late apoptotic cells at 15 uM measured after 48 hrs in presence of doxycycline by flow cytometry based Annexin V-PE/7-ADD Apoptosis detection kit; assay type: cell-based; design: scale not given: the % may be the effect or the level left
[14] = target: T1, Bcl-2-related protein A1 (Homo sapiens); assay: Inhibition of BFL-1 in BFL-1 overexpressing isogenic human MV4-11 cells assessed as late apoptotic cells at 20 uM measured after 48 hrs in presence of doxycycline by flow cytometry based Annexin V-PE/7-ADD Apoptosis detection kit; assay type: cell-based; design: scale not given: the % may be the effect or the level left
[15] = target: T1, Bcl-2-related protein A1 (Homo sapiens); assay: Inhibition of BFL-1 in BFL-1 overexpressing isogenic human MV4-11 cells assessed as early apoptotic cells at 10 uM measured after 48 hrs in presence of doxycycline by flow cytometry based Annexin V-PE/7-ADD Apoptosis detection kit; assay type: cell-based; design: scale not given: the % may be the effect or the level left
[16] = target: T1, Bcl-2-related protein A1 (Homo sapiens); assay: Inhibition of BFL-1 in BFL-1 overexpressing isogenic human MV4-11 cells assessed as enhancement of 1 uM venetoclax-induced late apoptotic cells at 15 uM measured after 48 hrs in presence of doxycycline by flow cytometry based Annexin V-PE/7-ADD Apoptosis detection kit; assay type: cell-based; design: scale not given: the % may be the effect or the level left
[17] = target: T1, Bcl-2-related protein A1 (Homo sapiens); assay: Inhibition of BFL-1 in BFL-1 overexpressing isogenic human MV4-11 cells assessed as enhancement of 3 uM venetoclax-induced late apoptotic cells at 15 uM measured after 48 hrs in presence of doxycycline by flow cytometry based Annexin V-PE/7-ADD Apoptosis detection kit; assay type: cell-based; design: scale not given: the % may be the effect or the level left
[18] = target: T1, Bcl-2-related protein A1 (Homo sapiens); assay: Inhibition of BFL-1 in BFL-1 overexpressing isogenic human MV4-11 cells assessed as enhancement of 3 uM venetoclax-induced late apoptotic cells at 20 uM measured after 48 hrs in presence of doxycycline by flow cytometry based Annexin V-PE/7-ADD Apoptosis detection kit; assay type: cell-based; design: scale not given: the % may be the effect or the level left
[19] = target: T1, Bcl-2-related protein A1 (Homo sapiens); assay: Inhibition of BFL-1 in BFL-1 overexpressing isogenic human MV4-11 cells assessed as enhancement of 1 uM venetoclax-induced early apoptotic cells at 20 uM measured after 48 hrs in presence of doxycycline by flow cytometry based Annexin V-PE/7-ADD Apoptosis detection kit; assay type: cell-based; design: scale not given: the % may be the effect or the level left
[20] = target: T1, Bcl-2-related protein A1 (Homo sapiens); assay: Inhibition of BFL-1 in BFL-1 overexpressing isogenic human MV4-11 cells assessed as enhancement of 3 uM venetoclax-induced early apoptotic cells at 10 uM measured after 48 hrs in presence of doxycycline by flow cytometry based Annexin V-PE/7-ADD Apoptosis detection kit; assay type: cell-based; design: scale not given: the % may be the effect or the level left
[21] = target: T1, Bcl-2-related protein A1 (Homo sapiens); assay: Inhibition of BFL-1 in BFL-1 overexpressing isogenic human MV4-11 cells assessed as enhancement of 3 uM venetoclax-induced early apoptotic cells at 15 uM measured after 48 hrs in presence of doxycycline by flow cytometry based Annexin V-PE/7-ADD Apoptosis detection kit; assay type: cell-based; design: scale not given: the % may be the effect or the level left
[22] = target: T1, Bcl-2-related protein A1 (Homo sapiens); assay: Inhibition of BFL-1 in BFL-1 overexpressing isogenic human MV4-11 cells assessed as enhancement of 3 uM venetoclax-induced early apoptotic cells at 20 uM measured after 48 hrs in presence of doxycycline by flow cytometry based Annexin V-PE/7-ADD Apoptosis detection kit; assay type: cell-based; design: scale not given: the % may be the effect or the level left
[23] = target: T1, Bcl-2-related protein A1 (Homo sapiens); assay: Inhibition of BFL-1 in BFL-1 overexpressing isogenic human MOLM-13 cells assessed as enhancement of venetoclax-induced increase in cleaved PARP level at 15 uM in presence of doxycycline by Western blot analysis; assay type: cell-based
[24] = target: T1, Bcl-2-related protein A1 (Homo sapiens); assay: Inhibition of BFL-1 in BFL-1 overexpressing isogenic human MV4-11 cells assessed as enhancement of venetoclax-induced increase in cleaved PARP level at 20 uM in presence of doxycycline by Western blot analysis; assay type: cell-based

C=CC(=O)Nc1ccc2c(c1)CCC(CN1CCN(c3ccc(C(=O)O)c(Oc4cnc5[nH]ccc5c4)c3)CC1)=C2c1ccc(Cl)cc1CC
Activity [1]: inactive | Activity (Pfeiffer [2]): Dose-Dependent Effect | Activity (Pfeiffer [3]): Dose-Dependent Effect | Activity (MV4-11): Dose-Dependent Effect | Activity [4]: 4.16% | Activity [5]: 18.5% | Activity [6]: 65.7% | Activity [7]: 6.25% | Activity [8]: 11% | Activity [9]: 56.8% | Activity [10]: 74.9% | Activity [11]: 64.6% | Activity [12]: 78.6% | Activity [13]: 6.38% | Activity [14]: 20.4% | Activity [15]: 5.52% | Activity [16]: 54.1% | Activity [17]: 54% | Activity [18]: 83.7% | Activity [19]: 16% | Activity [20]: 6.27% | Activity [21]: 10.5% | Activity [22]: 12.4% | Activity [23]: Active | Activity [24]: Active
